{
  "source": "patent US6932973B2",
  "about": "“Peptides which stimulate the expression of the cytokines of inflammation and promote tissue regeneration” (Centre National de la Recherche Scientifique—CNRS, priority 1999, dated 2005)",
  "system": "human mononucleated cells of the peripheral blood (PBMCs)",
  "experiment": "Incorporation of tritiated thymidine in PBMCs (proliferation)",
  "assay_type": "cell-based",
  "conditions": "IL-2 at 50 IU/ml, internal control",
  "method": "The PBMCs were cultured for 7 days in RPMI culture medium containing 10% fetal calf serum in the absence of or in the presence of 1 ng/ml HARP protein or 1 μg/ml of peptides 1 or 2. The incorporation of tritiated thymidine was determined as described above.\nHuman mononucleated cells originating from different healthy donors were isolated from peripheral blood after centrifugation on a Ficoll-Hypaque pad (Pharmacia Biotech) in accordance with the manufacturer's instructions. The cells were washed then cultured in RPMI 1640 medium supplemented by 10% heat-inactivated fetal calf serum (56° C., 30 min), 100 units/ml of penicillin and 100 μg/ml of streptomycin. The cells were inoculated at the rate of 10^6 cells per ml in a 96-well (round bottoms) culture plate (Costar). They were cultured for 7 days in the presence or not of human recombinant HARP protein produced in E. coli at the concentration of 100 ng/ml. In the last 18 hours of culture, 1 μCi of tritiated thymidine was added to each of the wells. The radioactivity incorporated in the cell nuclei was then measured using a scintillation counter.",
  "data": [
    {"substance": "IL-2: interleukin-2 at 50 IU/ml, internal control of stimulation [reference compound]", "values": [
      {"measurement": "stimulation of tritiated thymidine incorporation in PBMCs", "result": "No stimulation"}
    ]}
  ]
}
